{
  "source": "patent US20070249501A1",
  "about": "(priority 2004, published 2007)",
  "key": {"[1]": {"conditions": "cited from earlier work"}, "[2]": {"assay": "Degradation of bromopicrin in soil (HPLC, GC-MS)", "conditions": "5 mg bromopicrin to 1,000 grams Rehovot sand soil (95% sand); 0.5, 3 and 7 days"}, "[3]": {"tested_on": "tomato (cv. 870) seedlings", "assay": "Residual phytotoxicity of treated soil to tomato seedlings", "conditions": "dosage of 10-30 ppm; soil aerated ten days"}, "total aerobic bacteria": {"tested_on": "total aerobic bacteria", "assay": "Viability of soil-borne bacteria in treated soil: total bacteria", "conditions": "applied to soil at 30 ppm; 7 days at 25° C."}},
  "data": [
    {"compound": "O=[N+]([O-])C(Br)(Br)Br", "values": [
      {"measurement": "Solubility in Water", "setting": "[1]", "value": "Slightly"},
      {"measurement": "dissipation of bromopicrin in soil", "setting": "[2]", "value": "rapidly dissipates in soil"},
      {"measurement": "root system development compared with the untreated control", "setting": "[3]", "value": "developed larger root systems"},
      {"measurement": "density of total aerobic bacteria in soil", "setting": "total aerobic bacteria", "value": "about 6×10^5 cfu/g"}
    ]}
  ]
}
